In general, IC50 refers to the midpoint of a concentration-inhibition curve. Low values mean inhibition by little substance, high ones a need for much substance.

Drawing on ChEMBL document CHEMBL2074487, “Effects of 12 Ca2+ antagonists on multidrug resistance, MDR1-mediated transport and MDR1 mRNA expression” (Eur J Pharm Sci, 2002), this text covers IC50 for one molecule.

The target in the test is ATP-dependent translocase ABCB1 (Homo sapiens, UniProt P08183). As to the kind of experiment: TP_TRANSPORTER: inhibition of Digoxin transepithelial transport (basal to apical) (Digoxin: 0.1 uM) in MDR1-expressing LLC-PK1 cells. The test is classed as functional, cell-based.

With `COC(=O)C1=C(C)NC(C)=C(C(=O)OCCN(C)Cc2ccccc2)C1c1cccc([N+](=O)[O-])c1` (stereo unspecified) [NICARDIPINE], the IC50 worked out at 4.54 µM.
